Assay results: ChEMBL document CHEMBL3397030, “Synthesis and biological evaluation of 3-phenyl-3-aryl carboxamido propanoic acid derivatives as small molecule inhibitors of retinoic acid 4-hydroxylase (CYP26A1)” (Bioorg Med Chem, 2015)

Target: T1, Cytochrome P450 26A1 (Homo sapiens, UniProt O43174)
T1 sequence (O43174 whole entry): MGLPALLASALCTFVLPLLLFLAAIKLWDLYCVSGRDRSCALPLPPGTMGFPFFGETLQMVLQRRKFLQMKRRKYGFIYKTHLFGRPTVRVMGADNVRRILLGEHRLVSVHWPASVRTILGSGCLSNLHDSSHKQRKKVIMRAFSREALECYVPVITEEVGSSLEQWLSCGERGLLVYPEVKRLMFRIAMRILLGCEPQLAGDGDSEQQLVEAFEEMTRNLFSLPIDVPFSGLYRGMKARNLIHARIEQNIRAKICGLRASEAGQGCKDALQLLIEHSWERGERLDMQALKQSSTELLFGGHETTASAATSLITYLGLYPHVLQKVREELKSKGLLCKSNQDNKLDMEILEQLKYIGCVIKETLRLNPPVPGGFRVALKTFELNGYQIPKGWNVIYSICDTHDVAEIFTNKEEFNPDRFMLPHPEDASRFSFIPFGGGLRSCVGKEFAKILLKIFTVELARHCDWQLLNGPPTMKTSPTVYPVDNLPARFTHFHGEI
Test: Inhibition of CYP26A1 in ATRA-induced human HL60 cell microsomes incubated for 30 mins using ATRA and NADPH by HPLC method
Format: cell-based, HL-60

Clc1cccc(C(c2ccc3[nH]cnc3c2)n2ccnc2)c1 (stereo unspecified) [LIAROZOLE]
IC50: 2.45 µM
